## Binding of CDR-mutated scFvs to a peptide of the spike HR2 region

The measurements come from Li et al. 2023 (doi:10.1038/s41467-023-39022-2) through the FLAb antibody collection.

Target peptide (SARS-CoV-2 spike, HR2 region): PDVDLGDISGINAS

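The variants were designed computationally from a first round of random CDR variants and then made and measured. Several design methods are mixed in this list. Affinity was read by AlphaSeq, a pooled yeast mating assay with surface-displayed partners. Pairs that bind mate more often; barcode pairs of the diploids are counted by sequencing. Each replicate has its own calibration line, from reference interactions of the BCL2 family. There are six technical replicates.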

The variants keep the light chain, the linker and the frameworks of Ab-14 (scFv order VH, three GGGGS repeats, VL).
VH: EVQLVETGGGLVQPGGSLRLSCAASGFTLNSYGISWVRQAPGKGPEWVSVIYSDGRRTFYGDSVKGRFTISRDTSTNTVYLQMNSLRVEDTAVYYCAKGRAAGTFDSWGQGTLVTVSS
VL: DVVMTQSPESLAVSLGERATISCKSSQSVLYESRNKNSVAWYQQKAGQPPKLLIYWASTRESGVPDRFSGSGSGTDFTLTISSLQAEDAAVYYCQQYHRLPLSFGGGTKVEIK

The parent's heavy chain CDRs are GFTLNSYGIS, VIYSDGRRTFYGDSVK, GRAAGTFDS; each variant's own CDRs replace them letter for letter. The Kd shown is the geometric mean over detected replicates; a lower Kd is a better binder. An entry "nd" has no value in the source: the pair was not observed among the diploids in any replicate. This suggests poor binding but is not conclusive. Some sequences occur more than once in the pool; their replicates are pooled. Nonspecific signal, from three strains lacking the peptide, appeared in 1% of pairings of all heavy chain designs, centred on 120 nM (5% of these signals below 7.0 nM); values are not corrected for it. A sequence measured in both rounds can read differently, since the two assays cover different ranges. Of ten entries with the parent sequence, four were seen in most replicates (averages 2.2 nM to 240 nM), three in one and three in none, so single entries are noisy. The authors' rule: three or more of the six replicates give a measured affinity, fewer mean a poor binder.

CDR-H1 | CDR-H2 | CDR-H3 | apparent Kd | seen in
GFTLDSYGIS | VIYSDGRETFYGDSVK | GRAAGTFDS | 3.9 µM | 2/6
GFNLNSYGIS | VIYSDGRRTFYGDKVK | GRTAGTFDS | 7.0 nM | 11/12
YFSLNEYGIS | VIYSDGRRTFYGDSVK | GRMAGTFDS | 28 nM | 3/6
HFQLNEYGIS | VIYSDGRRTMYGDSVK | GRTAGTFDS | 19 nM | 5/6
GFSLNDYGIS | VIYSDGRRTFYGDSVK | GRVAGTFIS | 29 nM | 3/6
GFDIEEYGIS | VIYADGKRAAYADAVK | GENMDMMTD | nd | 0/6
GFDIEEYGIS | VIYADGLRQAYKDNFK | GWNDGTFDV | nd | 0/6
GFGLNSYGIS | VIYSDGRRTFYGDRVK | GQFAGTKDS | nd | 0/6
GFDLNEYGIS | VIYADGRRTFYADSVK | GNTAGTFDQ | 450 pM | 6/6
GFTLNDYGIS | VIYSDGRRTFYSDSVK | GTAAGTFDS | 56 nM | 5/6
GKTLNEYGIS | VIYSDGRRTFYTDSVK | GRFAGTFLS | nd | 0/6
GFYLNEYGIS | VIYADGIRSVYANKVK | GNGAGTLDD | nd | 0/6
GFDLNEYGIS | VIYADGRRTFYTDNVK | GQNAGTFDV | 740 pM | 6/6
GFDLEEYGIS | VIYADGRRTAYADSVK | GENAGTFDV | 1.1 nM | 6/6
GFDLNEYGIS | VIYADGKRTSYIDSVK | GNVAGTFDT | 2.0 nM | 6/6
GFSVNSYGIS | VIYSDGRRTFYGDSVK | GRAAGTFDS | 45 nM | 6/6
GFTLESYGIS | VIYSDGRRTFYGDSVK | GVSAGTFDS | 200 nM | 1/6
GFTLDSYGIS | VIYADGRRTFYGDSVK | GSAAGTALS | nd | 0/6
GDNLDEYGIS | VIYADGFRSHYAEKVK | GQQGGFFIK | nd | 0/6
GFTLNMYGIS | VIYAYGRRTFYGDSVK | GRAAGTNKS | nd | 0/6
GFDLNSYGIS | VIYSDGRRTFYGDSVK | GRTAGSFNS | 610 nM | 5/6
GFDLNEYGIS | VIYADGMRTVYADDVK | GENAGTFDV | 270 pM | 6/6
GFTLNDYGIS | VIYSDGRRTFYGDSVK | GRQAGTFKS | 4.4 µM | 2/6
GFDLNEYGIS | VIYADGRRTFYADSVK | GKAAGTFDQ | 190 pM | 6/6
GFTLKSYGIS | VIYSDGRRTFYDDSVK | GQLAGTFDS | 77 nM | 5/6
GFTLNSYGIS | VIYSDGRRTFYDDSVK | GQTAGTFDD | 2.0 nM | 4/6
GFTLNDYGIS | VIYSDGRRTFYGDSVK | GRAAGTFDE | 5.2 nM | 6/6
GFDLNSYGIS | VIYSDGRRTFYIDSVK | GRSAGTFDS | 8.7 nM | 5/6
GFDLNEYGIS | VIYADGRRTFYADSVK | GNNAGTFIV | 97 nM | 1/6
GFDLNEYGIS | VIYADGMRTAYVDSVK | GTNAGTFDL | 930 pM | 6/6
GFTLNSYGIH | VIYSDGRRKSYGDSVK | GKAAGTFKS | nd | 0/6
PFDLNSYGIS | VIYSDGRRTFYADSVK | GREAGTFDS | 11 nM | 4/6
GFDLNEYGIS | VIYADGRRTAYIDSVK | GENAGTFDS | 510 pM | 6/6
GFDLDEYGIS | VIYADGKRTAYSDSVK | GQNAGTFDI | 370 pM | 6/6
GFDLEDYGIS | VIYADGRRTFYADSVK | GETAGTFDL | 290 pM | 6/6
GFTLNEYGIS | VIYSDGRRTFYSDSVK | GQFAGTFDS | 1.5 nM | 6/6
GFDLNEYGIS | VIYADGSRTAYADSVK | GANAGTFDI | 280 pM | 6/6
GFDLNEYGIS | VIYADGVRQAYADSVK | GTNAGTFDV | 280 pM | 6/6
GFDLDEYGIS | VIYADGMRTAYQDSVK | GNVAGTFDV | 300 pM | 6/6
GFTLNDYGIS | VIYSDGKRTFYGDSVK | GRTAGTFDS | 960 pM | 6/6
GFGINEYGIS | VIYADGMRRSYADSVK | GAHSGYMVW | nd | 0/6
GFELNSYGIS | VIYSDGRRTFYSDSVK | GVAAGTFDS | 3.9 nM | 6/6
GFTLNEYGIS | VIYSDGRRTFYGDKVK | GRAAVTFDQ | nd | 0/6
GYSLQDYGIS | VIYADGKRKSYAEDVK | GQTAGSVMD | nd | 0/6
GFSLGEYGIS | VIYADGMRSAYTDDVK | GAGANIITH | 460 pM | 6/6
DFTLNEYGIS | VIYSDGRRTFYGDSYK | GEAPGTFDS | 6.2 nM | 6/6
GFTLNEYGIS | VIYSDGRRTFYGDSVK | GELAGTFDS | 7.2 nM | 5/6
KFDLNEYGIS | VIYSDGRRTFYGDSVK | GRCAGTFDS | 37 nM | 1/6

The 5 strongest on average among those seen in every replicate, once more:

CDR-H1 | CDR-H2 | CDR-H3 | apparent Kd | seen in
GFDLNEYGIS | VIYADGRRTFYADSVK | GKAAGTFDQ | 190 pM | 6/6
GFDLNEYGIS | VIYADGMRTVYADDVK | GENAGTFDV | 270 pM | 6/6
GFDLNEYGIS | VIYADGSRTAYADSVK | GANAGTFDI | 280 pM | 6/6
GFDLNEYGIS | VIYADGVRQAYADSVK | GTNAGTFDV | 280 pM | 6/6
GFDLEDYGIS | VIYADGRRTFYADSVK | GETAGTFDL | 290 pM | 6/6